Among the data in PMC3540129 are stoichiometry N values, retold here.

This assay concerns the target Kv7.2 (KCNQ2) B-D construct (Q2BD), tag removed (human) (UniProt O43526). Kind of assay: SEC. (In general: Size exclusion chromatography separates by hydrodynamic size, large species first.)

As for “Kv7.2 (KCNQ2) B-D construct (Q2BD), tag removed (from UniProt O43526 1-872) (domain or fragment)”, the stoichiometry N (usually the number of molecules, sites or subunits per partner or assembly) was 4.
